Tests used:
[1] = molecular target: GPR8 (Homo sapiens, UniProt P48146); experiment: Receptor binding test using [125I-Tyr10]-hGPR8L (1-23) and GPR8-expressed CHO cell membrane fraction; set-up: expressed in transfected cells; host or cells: membrane fraction of CHO dhfr- cells transfected with pAKKO-GPR8; settings: inhibition of [125I-Tyr10]-hGPR8L (1-23) binding; GPR8-expressed CHO cell membrane fraction
[2] = molecular target: T1, GPR7 (Homo sapiens, UniProt P48145); experiment: Intracellular cAMP production suppressing activity in human GPR7-expressed CHO cells; format: cell-based; set-up: expressed in transfected cells; host or cells: membrane fraction of CHO dhfr- cells transfected with pAKKO-Human GPR7; settings: for intracellular cAMP production suppressing activity (in words): human GPR7-expressed CHO cells, forskolin
T1 sequence (P48145 1-328): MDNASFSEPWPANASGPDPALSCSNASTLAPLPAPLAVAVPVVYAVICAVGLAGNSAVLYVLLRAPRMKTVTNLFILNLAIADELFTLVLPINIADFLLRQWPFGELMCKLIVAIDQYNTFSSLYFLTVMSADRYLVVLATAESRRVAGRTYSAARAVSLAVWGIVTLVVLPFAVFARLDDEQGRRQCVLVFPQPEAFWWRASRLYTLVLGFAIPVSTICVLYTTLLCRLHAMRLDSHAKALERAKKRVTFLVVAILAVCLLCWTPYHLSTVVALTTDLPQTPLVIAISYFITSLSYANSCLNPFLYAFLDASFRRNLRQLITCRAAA
Method: The human GPR7-expressed CHO cells, which were prepared in REFERENCE EXAMPLE 68 and selected as described in REFERENCE EXAMPLE 69, were seeded on a 24-well plate in 5×10^4 cells/well, followed by incubation for 48 hours. The cells were washed with a MEMα buffer (pH7.4) containing 0.2 mM 3-isobutyl-methylxanthine, 0.05% BSA (bovine serum albumin) and 20 mM HEPES (hereinafter the MEMα buffer (pH7.4) containing 0.2 mM 3-isobutyl-methylxanthine, 0.05% BSA and 20 mM HEPES is referred to as a reaction buffer). Thereafter, 0.5 ml of the reaction buffer was added to the cells, which was then kept warm in an incubator for 30 minutes. The reaction buffer was removed and after 0.25 ml of a fresh reaction buffer was replenished to the cells, a sample solution in DMSO having an appropriate concentration and 0.25 ml of the reaction buffer containing 2 μM of forskolin were added to the cells, followed by reacting at 37° C. for 30 minutes. The reaction was terminated by adding 100 μl of 20% perchloric acid. Next, the reaction mixture was put on ice for an hour to extract intracellular cAMP. The level of cAMP in the extract was determined by cAMP EIA Kit (Amersham Pharmacia Biotech).
Following the method described in REFERENCE EXAMPLE 70, hGPR8L (1-23) (SEQ ID NO:16) or hGPR8L (1-30) (SEQ ID NO:17) was given to the human GPR7-expressed CHO cells in various concentrations to determine the intracellular cAMP production suppressing activity. The results are shown in FIG. 14, wherein the cAMP synthesis suppressing activity is expressed by the value in terms of % of the intracellular cAMP level, which was obtained by subtracting the intracellular cAMP level accumulated where hGPR8L (1-23) or hGPR8L (1-30) was added, from the intracellular cAMP level accumulated where the reaction buffer was added, taking as 100% the intracellular cAMP level obtained by subtracting the intracellular cAMP level accumulated where the reaction buffer was added, from the intracellular cAMP level accumulated where the reaction buffer containing forskolin was added.

Chains of the proteins cited; added tags and fusions are not shown. Lines headed by an entry give the natural chain unless they say otherwise; changes in a name come on top.
UniProt P48146: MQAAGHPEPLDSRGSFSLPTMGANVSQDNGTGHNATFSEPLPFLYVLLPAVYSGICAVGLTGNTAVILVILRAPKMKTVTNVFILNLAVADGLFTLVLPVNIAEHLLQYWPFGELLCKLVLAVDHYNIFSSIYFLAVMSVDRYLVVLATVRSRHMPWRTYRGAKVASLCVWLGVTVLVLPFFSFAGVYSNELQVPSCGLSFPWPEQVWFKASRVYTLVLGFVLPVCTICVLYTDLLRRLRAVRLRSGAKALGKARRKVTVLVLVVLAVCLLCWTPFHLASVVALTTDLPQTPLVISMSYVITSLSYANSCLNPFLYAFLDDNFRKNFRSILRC

| IC50 [1] [nM] | IC50 ([2]; forskolin-stimulated human GPR7-expressed CHO cells, read-out: 50% inhibitory concentration (IC50) from the cAMP production level) [nM] | Compound | intracellular cAMP production suppressing activity (in words) [2] |
| --- | --- | --- | --- |
| 0.25 | 0.025 | CSCC[C@H](NC(=O)[C@H](CC(C)C)NC(=O)[C@H](CC(C)C)NC(=O)CNC(=O)[C@H](C)NC(=O)[C@H](C)NC(=O)[C@H](CCCNC(=N)N)NC(=O)CNC(=O)[C@@H](NC(=O)[C@@H](NC(=O)[C@H](Cc1c[nH]cn1)NC(=O)[C@H](Cc1ccc(O)cc1)NC(=O)[C@H](CCCNC(=N)N)NC(=O)[C@@H]1CCCN1C(=O)[C@H](CO)NC(=O)[C@H](C)NC(=O)[C@@H](NC(=O)[C@H](Cc1c[nH]cn1)NC(=O)[C@H](CCCCN)NC(=O)[C@H](Cc1ccc(O)cc1)NC(=O)[C@@H](N)Cc1c[nH]c2ccccc12)C(C)C)[C@@H](C)O)C(C)C)C(=O)NCC(=O)N[C@@H](CC(C)C)C(=O)O [hGPR8L(1–23)] | suppressed the intracellular cAMP production dose-dependently |
|  |  | CSCC[C@H](NC(=O)[C@H](CC(C)C)NC(=O)[C@H](CC(C)C)NC(=O)CNC(=O)[C@H](C)NC(=O)[C@H](C)NC(=O)[C@H](CCCNC(=N)N)NC(=O)CNC(=O)[C@@H](NC(=O)[C@@H](NC(=O)[C@H](Cc1c[nH]cn1)NC(=O)[C@H](Cc1ccc(O)cc1)NC(=O)[C@H](CCCNC(=N)N)NC(=O)[C@@H]1CCCN1C(=O)[C@H](CO)NC(=O)[C@H](C)NC(=O)[C@@H](NC(=O)[C@H](Cc1c[nH]cn1)NC(=O)[C@H](CCCCN)NC(=O)[C@H](Cc1ccc(O)cc1)NC(=O)[C@@H](N)Cc1c[nH]c2ccccc12)C(C)C)[C@@H](C)O)C(C)C)C(=O)NCC(=O)N[C@@H](CC(C)C)C(=O)N[C@@H](CCCNC(=N)N)C(=O)N[C@@H](CCCNC(=N)N)C(=O)N[C@@H](CO)C(=O)N1CCC[C@H]1C(=O)N[C@@H](Cc1ccc(O)cc1)C(=O)N[C@@H](CC(C)C)C(=O)N[C@@H](Cc1c[nH]c2ccccc12)C(=O)O [hGPR8L(1–30)] | suppressed the intracellular cAMP production dose-dependently |
